Reference: patent publication US20170247447A1 (Hoffmann-La Roche, published 2017)
Read-outs that look alike come from different tables or passages of the source.

Assays:
Experiment in all cases: cell-based or functional assay
human IL-1beta [1] = target: T1, human IL-1beta (human, UniProt P01584 117-269)
human IL-1beta [2] = target: T1, human IL-1beta; remark: listed apart in the source
human IL-1beta [3] = target: T1, human IL-1beta; remark: listed apart in the source
human IL-1beta [4] = target: T1, human IL-1beta; remark: listed apart in the source

- EC50, reduction of IL-6 expression, A549 cells (human IL-1beta [1]): 0.11 nM
- IC50, inhibition of ICAM-1 expression, A549 cells (human IL-1beta [2]): 0.204 µg/mL
- IC50, inhibition of ICAM-1 expression, A549 cells (human IL-1beta [3]): 0.94 nM
- EC50, reduction of IL-6 expression, A549 cells (human IL-1beta [4]): 0.062 µg/mL
B1: Gevokizumab (antibody, V domains shown)
VH: QVQLQESGPGLVKPSQTLSLTCSFSGFSLSTSGMGVGWIRQPSGKGLEWLAHIWWDGDESYNPSLKSRLTISKDTSKNQVSLKITSVTAADTAVYFCARNRYDPPWFVDWGQGTLVTVSS
VL: DIQMTQSTSSLSASVGDRVTITCRASQDISNYLSWYQQKPGKAVKLLIYYTSKLHSGVPSRFSGSGSGTDYTLTISSLQQEDFATYFCLQGKMLPWTFGQGTKLEIK
